# Ab-14 heavy chain CDR variants: yeast mating affinities

Values reported by Li et al. 2023, doi:10.1038/s41467-023-39022-2 (FLAb copy).

Target: peptide PDVDLGDISGINAS, taken from heptad repeat 2 (HR2) of SARS-CoV-2 spike.

Ab-14 is the parent antibody, in scFv form: VH, then a (GGGGS)3 linker, then VL. The light chain is unchanged in all variants.
VH: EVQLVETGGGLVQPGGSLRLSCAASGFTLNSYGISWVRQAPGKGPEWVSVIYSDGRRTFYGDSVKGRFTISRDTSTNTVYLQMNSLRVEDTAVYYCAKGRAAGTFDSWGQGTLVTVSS
VL: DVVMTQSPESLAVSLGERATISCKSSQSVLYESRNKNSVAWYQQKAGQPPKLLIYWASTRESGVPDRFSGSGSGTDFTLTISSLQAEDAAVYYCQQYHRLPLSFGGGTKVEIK

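Phage display of a naive human antibody library on the peptide gave the parent. These sequences belong to a second round, designed from the earlier measurements on random variants of the parent. Group labels follow the data file (Ctrl: baseline library sampled from a position-specific scoring matrix, with some repeated check sequences; GPLM: also part of the Gaussian process libraries; Gen: genetic algorithm; a sequence that several methods proposed may carry one label only). In AlphaSeq, yeast of one mating type display the scFv and yeast of the other type display the target. After mating in shaken culture at 30 °C for 16 h, diploids were selected and their barcode pairs sequenced. Each replicate has its own calibration line, from reference interactions of the BCL2 family. Each pool was mated in six replicate cultures.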

Positions count from residue 1 of the parent VH; N30L puts L in place of N. The read-out is the apparent dissociation constant on a log10 scale (nM): the lower, the stronger. Averages over replicates are reported, and they cover detected replicates only. "ND" means that the variant was in the library but no mating with the target was seen in that replicate; the authors take this as a sign of poor binding, and no number exists.

| # | changes | group | log10 Kd (nM) by replicate | mean log10 Kd (nM) | empty controls |
|---|---|---|---|---|---|
| 1 | N30L R56K F59W G61L R100Q D106I | Ctrl | ND / ND / ND / ND / ND / ND | ND | 0/18 |
| 2 | K65R R100D A102T T104A | Ctrl | ND / ND / ND / ND / ND / ND | ND | 1/18 (1.46) |
| 3 | S31M G61A K65V | Ctrl | 1.50 / 1.58 / 1.64 / 1.38 / 1.20 / 1.20 | 1.42 | 0/18 |
| 4 | T28N S63F G103I | Ctrl | ND / ND / ND / ND / ND / ND | ND | 0/18 |
| 5 | T28E N30G D106K | Ctrl | 3.36 / ND / ND / ND / ND / ND | 3.36 | 0/18 |
| 6 | S31M S53A S63F R100H A101N | Ctrl | 0.93 / ND / ND / ND / ND / ND | 0.93 | 0/18 |
| 7 | N30D S31D F59G | Ctrl | 0.31 / -0.12 / 0.19 / 0.12 / -0.20 / -0.39 | -0.01 | 0/18 |
| 8 | F59A R100K D106V | Ctrl | ND / ND / ND / ND / ND / ND | ND | 1/18 (1.54) |
| 9 | S31L F59A G61A S63K A101W | Ctrl | ND / 2.37 / 1.96 / 1.93 / 2.41 / 2.31 | 2.20 | 1/18 (3.21) |
| 10 | S31D D62Q A102S S107M | Ctrl | ND / ND / ND / ND / ND / ND | ND | 0/18 |
| 11 | S31M R100S | Ctrl | 1.40 / 1.69 / 1.40 / 0.76 / 1.00 / 0.59 | 1.14 | 0/18 |
| 12 | S31D S63K A101T S107T | Ctrl | 0.70 / 0.02 / -0.25 / 0.46 / 0.41 / -0.17 | 0.20 | 0/18 |
| 13 | F59M R100T A101W | Ctrl | ND / ND / ND / ND / ND / 3.43 | 3.43 | 0/18 |
| 14 | S31E F59A R100H G103A | Ctrl | ND / ND / ND / ND / ND / 1.94 | 1.94 | 0/18 |
| 15 | I51M S53A A102Y | Ctrl | ND / ND / ND / ND / ND / ND | ND | 0/18 |
| 16 | K65R S107W | Ctrl | ND / ND / ND / ND / ND / ND | ND | 0/18 |
| 17 | S53F F59A R100Q | Ctrl | ND / ND / ND / ND / 1.63 / 0.85 | 1.24 | 0/18 |
| 18 | N30S S53A A102I T104S S107P | Ctrl | ND / ND / ND / ND / ND / ND | ND | 0/18 |
| 19 | L29N R56E K65V | Ctrl | ND / ND / ND / ND / ND / ND | ND | 0/18 |
| 20 | R56V G61A K65D | Ctrl | 1.26 / 1.08 / 1.31 / 1.34 / 1.05 / 0.81 | 1.14 | 1/18 (3.20) |
| 21 | T28E A102R | Ctrl | ND / ND / ND / ND / ND / ND | ND | 0/18 |
| 22 | G26K G61L R100S | Ctrl | ND / ND / ND / ND / ND / ND | ND | 0/18 |
| 23 | L29V G61A R100Q T104E D106S | Ctrl | ND / ND / ND / ND / ND / ND | ND | 0/18 |
| 24 | T28Q N30D K65D A102K D106W | Ctrl | ND / ND / ND / ND / ND / ND | ND | 0/18 |
| 25 | G61Q A102K | Ctrl | ND / ND / ND / ND / ND / ND | ND | 0/18 |
| 26 | F27E F59A S63R K65R G103V | Ctrl | ND / ND / ND / ND / ND / ND | ND | 0/18 |
| 27 | T28G S31N G61S G103V T104A | Ctrl | ND / ND / ND / ND / ND / ND | ND | 1/18 (2.05) |
| 28 | T28D L29N G61S A102R S107L | Ctrl | ND / ND / ND / ND / 2.43 / ND | 2.43 | 1/18 (3.27) |
| 29 | T28S D54C | Ctrl | ND / ND / ND / ND / ND / ND | ND | 0/18 |
| 30 | T28S L29I R100E G103K | Ctrl | ND / ND / ND / ND / ND / ND | ND | 0/18 |
| 31 | S63R R100S A101W | Ctrl | ND / ND / ND / ND / ND / ND | ND | 0/18 |
| 32 | T58K D106V | Ctrl | ND / ND / ND / ND / ND / ND | ND | 0/18 |
| 33 | G61N D106E | Ctrl | ND / ND / ND / ND / ND / ND | ND | 0/18 |
| 34 | R56E G61R T104V | Ctrl | 2.37 / ND / ND / ND / ND / ND | 2.37 | 0/18 |
| 35 | N30E T104Q | Ctrl | ND / ND / ND / ND / ND / ND | ND | 0/18 |
| 36 | R56K S107W | Ctrl | -0.70 / -0.96 / -0.46 / -0.34 / -0.77 / -0.50 | -0.62 | 0/18 |
| 37 | F27L T58A | Ctrl | ND / ND / ND / ND / ND / ND | ND | 0/18 |
| 38 | S31E R56H R100S D106S S107C | Ctrl | ND / ND / ND / ND / ND / ND | ND | 0/18 |
| 39 | F27N F59A G103L | Ctrl | 2.50 / 1.70 / 1.09 / 1.36 / 1.51 / ND | 1.63 | 0/18 |
| 40 | N30E S53A | Ctrl+GPLM_Gen | 0.08 / 0.19 / -0.14 / 0.40 / 0.08 / 0.04; 0.77 / -0.06 / -0.09 / -0.02 / 0.28 / 0.27 | 0.15 | 0/36 |
| 41 | S31Q R56I A102G | Ctrl | ND / ND / ND / ND / ND / ND | ND | 0/18 |
| 42 | N30D S31E | Ctrl | 0.10 / 0.31 / 0.38 / -0.39 / -0.42 / 0.53 | 0.08 | 1/18 (2.52) |
| 43 | I34G G61S A101E | Ctrl | 0.76 / ND / ND / ND / ND / 2.26 | 1.51 | 0/18 |
| 44 | T28Q R100T S107L | Ctrl | 1.21 / 0.84 / 0.58 / 0.55 / 0.85 / 0.82 | 0.81 | 4/18 (3.06) |
| 45 | S53A R100Y D106F S107L | Ctrl | -0.05 / -0.58 / ND / ND / -0.49 / 0.57 | -0.14 | 0/18 |
| 46 | T28K S53A R100K | Ctrl | 0.21 / -0.22 / 1.10 / 0.23 / 0.30 / 0.57 | 0.36 | 0/18 |
| 47 | F27E G61L S107M | Ctrl | ND / ND / ND / ND / ND / 1.83 | 1.83 | 0/18 |
| 48 | G33S | Ctrl | ND / ND / ND / ND / ND / ND | ND | 0/18 |
| 49 | N30E S31D R100Q A102T | Ctrl | ND / ND / ND / ND / 1.45 / ND | 1.45 | 0/18 |
| 50 | N30D S107Y | Ctrl | 1.72 / 1.96 / 0.84 / 1.87 / 1.13 / 1.10 | 1.44 | 0/18 |

Extract of 7 entries:

| changes | group | log10 Kd (nM) by replicate | mean log10 Kd (nM) | empty controls |
|---|---|---|---|---|
| G26K G61L R100S | Ctrl | ND / ND / ND / ND / ND / ND | ND | 0/18 |
| L29V G61A R100Q T104E D106S | Ctrl | ND / ND / ND / ND / ND / ND | ND | 0/18 |
| F27E G61L S107M | Ctrl | ND / ND / ND / ND / ND / 1.83 | 1.83 | 0/18 |
| S63R R100S A101W | Ctrl | ND / ND / ND / ND / ND / ND | ND | 0/18 |
| S53A R100Y D106F S107L | Ctrl | -0.05 / -0.58 / ND / ND / -0.49 / 0.57 | -0.14 | 0/18 |
| F27E F59A S63R K65R G103V | Ctrl | ND / ND / ND / ND / ND / ND | ND | 0/18 |
| S31D S63K A101T S107T | Ctrl | 0.70 / 0.02 / -0.25 / 0.46 / 0.41 / -0.17 | 0.20 | 0/18 |

In the paper, a design with two or fewer of six values counts as a poor binder. Three control strains display no target. For all heavy chain designs, 1% of the pairings with them gave a signal, with a median of 2.08 and one signal in twenty below 0.84, so weak values seen in few replicates may be background. The control count says in how many pairings with the empty strains this scFv gave a signal, with their mean in brackets. The range of this assay differs from that of the first round, and the authors advise against merging the two. A sequence that the file lists under several names has all its replicates listed entry by entry, parted by semicolons.